# Publication PMC7765948, “Spadin Modulates Astrocytic Passive Conductance via Inhibition of TWIK-1/TREK-1 Heterodimeric Channels” (International Journal of Molecular Sciences, 2020)
# Tests used:
# [1] = system: TWIK-1/TREK-1-mediated K^+ currents in cultured astrocytes; assay: Whole-cell patch clamp in cultured astrocytes with CRISPR/Cas9 knockout of TREK-1 or TWIK-1; assay type: cell-based, mouse (C57BL/6); settings: 10 µM spadin
# Description: Primary cortical astrocytes were prepared from one day-old male and female C57BL/6 mouse pups culture astrocytes, P1 C57BL/6 J mouse pups. The cerebral cortex was dissected free of adherent meninges, minced and dissociated into single-cell suspension by trituration through a pipette. All experimental procedures described were performed in accordance with the guidelines of Korea University (Seoul, Korea). Dissociated cells were plated onto either 12 mm glass coverslips or six-well plates coated with 0.1 mg/mL Poly-D-Lysine (PDL). Cells were grown in Dulbecco’s modified Eagle’s medium (DMEM, ThermoFisher, Waltham MA, USA) supplemented with 10% heat-inactivated fetal bovine serum, 10% heat-inactivated horse serum, and penicillin–streptomycin. Cultures were maintained at 37 °C in a humidified 5% CO2 incubator. On the third day of culture, cells were washed by repeated pipetting and the media was replaced to remove debris and other floating cells. On the next day (fourth day of culture), the cells were replaced onto glass coverslips (1 × 104 per coverslip) coated with 0.1 mg/mL PDL. During this procedure, cultured astrocytes were transfected with various shRNAs or gRNAs with an optimized voltage protocol (1100 V, 20 pulse width ms, 2 pulses number) using the Neon Electroporation instrument (ThermoFisher, Waltham, MA, USA).
# TREK-1 and TWIK-1 were knocked-out in primary cultured astrocytes using CRISPR/Cas9 technology. TREK-1, TWIK-1, and control CRISPR/Cas9 plasmid were purchased from Santa Cruz Biotechnology (Santa Cruz, Dallas, TX, USA; sc-421244, sc-421243, and sc-418922, respectively). Briefly, all plasmids were transfected by electroporation into primary cultured astrocytes. Transfected astrocytes were plated in 60 mm dishes and cultured for 48 h. When different alleles of mutant clones had to be analyzed, target regions were amplified by PCR using 2× TOPsimpleTM DyeMIX-Forte (Enzynomics, Daejeon, Korea), amplicons were cloned using pTOP Blunt V2 (Enzynomics, Daejeon, Korea), and transformed into TOP10 competent cells. Bacterial colonies containing plasmids with inserts were selected by colony-direct PCR, and PCR products were confirmed by DNA sequencing analysis.
# Cultured astrocytes were plated onto coverslips for electrophysiological experiments. The standard solution for the pipette contained (in mM): 150 KCl, 1 CaCl2, 1 MgCl2, 5 EGTA, and 10 HEPES (pH 7.2, adjusted with KOH). Standard bath solution contained (in mM): 150 NaCl, 3 KCl, 2 CaCl2, 1 MgCl2, 10 HEPES, 5.5 D-glucose, and 20 sucrose (pH 7.4, adjusted with NaOH). Patch pipettes were made from borosilicate glass capillaries (Warner Instruments, Washington, DC, USA). The pipette resistance was 5–6 MΩ. Whole-cell currents were recorded using a patch clamp amplifier (Axopatch 700B, Axon Instruments, Union City, CA, USA). Current–voltage relations were measured by applying ramped pulses (from −150 mV to +50 mV over 1000-ms) from a holding potential of −60 mV. A Digidata 1550 A interface (Axon Instruments, Union City, CA, USA) was used to convert digital–analog signals between the amplifier and computer. Data were sampled at 5 kHz and filtered at 1 kHz. Currents were analyzed with Clampfit software (Axon Instruments, Union City, CA, USA). […] Different concentrations of spadin were sequentially bath-applied from low concentration to high concentration by switching solenoid valves using a gravity-fed perfusion system (VC-6M, Harvard Apparatus, Holliston, MA, USA). Whole-cell currents were recorded after 2 min when spadin-contained bath solutions were exchanged. All experiments were conducted at room temperature of 20–22 °C.
# All data are presented as means ± standard error of the mean (s.e.m). The significance of data for comparison was assessed by Student’s t-test (paired t-test) or one-way ANOVA followed by Turkey’s post hoc test, and significance levels are given as: n.s: not significant, * p < 0.05, ** p < 0.01, *** p < 0.001, and **** p < 0.0001. […]
# [2] = system: astrocytic passive conductance in mouse hippocampal slices; assay: Whole-cell patch clamp of astrocytic passive conductance in hippocampal slices; assay type: cell-based, mouse (C57BL/6)
# Description: Lentiviruses were injected into hippocampal CA1 region (AP: 0.17, ML: 0.17, DV: 0.19) of 7–8 week-old wild-type C57BL/6 mice. The virus-infected mouse brain slices (350 μm) containing the hippocampus were […]. Individual hippocampal slices were transferred to a recording chamber, which was constantly perfused with artificial cerebrospinal fluid (ACSF) recording solution containing (in mM) 130 NaCl, 24 NaHCO3, 3.5 KCl, 1.25 NaH2PO4, 1.5 CaCl2, 1.5 MgCl2, and 10 glucose saturated with 95% O2–5% CO2 at pH 7.4. Brain slices were co-loaded with SR-101 (Sigma Aldrich, St. Louis, MO, USA; 1 mM) dye to identify the location of astrocytes in the CA1 region. The slices were recovered at room temperature for at least 1 h before SR101 incubation and electrophysiological recording. […] Whole-cell patch recordings were performed on hippocampal astrocytes with a voltage-clamp configuration using an Axopatch 700B (Axon Instruments, Union City, CA, USA). All data are presented as means ± standard error of the mean (s.e.m). The significance of data for comparison was assessed by Student’s t-test (paired t-test) or one-way ANOVA followed by Turkey’s post hoc test, and significance levels are given as: n.s: not significant, * p < 0.05, ** p < 0.01, *** p < 0.001, and **** p < 0.0001. To obtain the IC50 value for dose-dependent inhibition, concentration–response data were fitted with the Hill equation. Prism9.0 software (GraphPad Software, San Diego, CA, USA) was used for carrying out the statistical analysis.
# TREK-1 = settings: cited from earlier work
# Description: Because of the typical linear I–V relationship of astrocytic passive conductance, it has been speculated that astrocytic passive conductance is carried by non-voltage-gated K^+ channels.
# [3] = hippocampal slices, 10 μM spadin
structure (smiles),measurement,setting,value
CC[C@H](C)[C@H](NC(=O)[C@@H]1CCCN1C(=O)CNC(=O)[C@H](CO)NC(=O)[C@H](Cc1c[nH]c2ccccc12)NC(=O)[C@H](CCCNC(=N)N)NC(=O)[C@@H]1CCCN1C(=O)[C@H](CC(C)C)NC(=O)[C@@H]1CCCN1C(=O)[C@H](C)NC(=O)[C@@H](N)Cc1ccc(O)cc1)C(=O)NCC(=O)N[C@H](C(=O)N[C@@H](CO)C(=O)N[C@@H](Cc1c[nH]c2ccccc12)C(=O)NCC(=O)N[C@@H](CC(C)C)C(=O)N[C@@H](CCCNC(=N)N)C(=O)O)C(C)C [spadin],K^+ conductance with spadin,[1]; TREK-1 KO astrocytes,did not engender further differences in K^+ conductance
same,spadin-sensitive K^+ conductance,[1]; TREK-1 KO astrocytes,lost almost all spadin-sensitive K^+ conductance
same,K^+ conductance with spadin,[1]; TWIK-1 KO astrocytes,could not induce any further changes to K^+ conductance
same,spadin-sensitive currents,[1]; TWIK-1 KO astrocytes,almost disappeared
same,K^+ conductance with spadin,[1]; control gRNA astrocytes (TREK-1 KO experiment),huge reduction
same,K^+ conductance with spadin,[1]; control gRNA astrocytes (TWIK-1 KO experiment),wide range of decreases in K^+ conductance
same,residual conductance with spadin,"[2]; 10 µM spadin, Figures 6 and 7",~30%
same,I–V relationship with spadin,[2]; [3],"maintained linearity, and the slope became much gentler"
same,astrocytic passive conductance,[2]; [3],very substantial reduction in astrocytic passive conductance
same,reversal potential (Vrev) after treatment,"[2]; hippocampal slices, 10 μM spadin, control −81.1 ± 1.05 mV, mean ± s.e.m.",−76.6 ± 0.82 mV
same,"outward current remaining, of control","[2]; hippocampal slices, +40 mV, 10 μM spadin, ACSF pH 7.4",30%
same,"inward current remaining, of control","[2]; hippocampal slices, −160 mV, 10 μM spadin, ACSF pH 7.4",40%
same,effect of spadin on TREK-1 activity in presence of arachidonic acid,TREK-1; arachidonic acid (AA),enhanced by arachidonic acid (AA)
same,TREK-1 channel inhibition,TREK-1; heterologous systems,dramatically inhibits
